Measured values as given in ChEMBL document CHEMBL5331077, “Combining pharmacophore models derived from DNA-encoded chemical libraries with structure-based exploration to predict Tankyrase 1 inhibitors” (Eur J Med Chem, 2023).

Target: T1, Poly [ADP-ribose] polymerase tankyrase-1 (Homo sapiens) (UniProt O95271)
T1 sequence (whole entry): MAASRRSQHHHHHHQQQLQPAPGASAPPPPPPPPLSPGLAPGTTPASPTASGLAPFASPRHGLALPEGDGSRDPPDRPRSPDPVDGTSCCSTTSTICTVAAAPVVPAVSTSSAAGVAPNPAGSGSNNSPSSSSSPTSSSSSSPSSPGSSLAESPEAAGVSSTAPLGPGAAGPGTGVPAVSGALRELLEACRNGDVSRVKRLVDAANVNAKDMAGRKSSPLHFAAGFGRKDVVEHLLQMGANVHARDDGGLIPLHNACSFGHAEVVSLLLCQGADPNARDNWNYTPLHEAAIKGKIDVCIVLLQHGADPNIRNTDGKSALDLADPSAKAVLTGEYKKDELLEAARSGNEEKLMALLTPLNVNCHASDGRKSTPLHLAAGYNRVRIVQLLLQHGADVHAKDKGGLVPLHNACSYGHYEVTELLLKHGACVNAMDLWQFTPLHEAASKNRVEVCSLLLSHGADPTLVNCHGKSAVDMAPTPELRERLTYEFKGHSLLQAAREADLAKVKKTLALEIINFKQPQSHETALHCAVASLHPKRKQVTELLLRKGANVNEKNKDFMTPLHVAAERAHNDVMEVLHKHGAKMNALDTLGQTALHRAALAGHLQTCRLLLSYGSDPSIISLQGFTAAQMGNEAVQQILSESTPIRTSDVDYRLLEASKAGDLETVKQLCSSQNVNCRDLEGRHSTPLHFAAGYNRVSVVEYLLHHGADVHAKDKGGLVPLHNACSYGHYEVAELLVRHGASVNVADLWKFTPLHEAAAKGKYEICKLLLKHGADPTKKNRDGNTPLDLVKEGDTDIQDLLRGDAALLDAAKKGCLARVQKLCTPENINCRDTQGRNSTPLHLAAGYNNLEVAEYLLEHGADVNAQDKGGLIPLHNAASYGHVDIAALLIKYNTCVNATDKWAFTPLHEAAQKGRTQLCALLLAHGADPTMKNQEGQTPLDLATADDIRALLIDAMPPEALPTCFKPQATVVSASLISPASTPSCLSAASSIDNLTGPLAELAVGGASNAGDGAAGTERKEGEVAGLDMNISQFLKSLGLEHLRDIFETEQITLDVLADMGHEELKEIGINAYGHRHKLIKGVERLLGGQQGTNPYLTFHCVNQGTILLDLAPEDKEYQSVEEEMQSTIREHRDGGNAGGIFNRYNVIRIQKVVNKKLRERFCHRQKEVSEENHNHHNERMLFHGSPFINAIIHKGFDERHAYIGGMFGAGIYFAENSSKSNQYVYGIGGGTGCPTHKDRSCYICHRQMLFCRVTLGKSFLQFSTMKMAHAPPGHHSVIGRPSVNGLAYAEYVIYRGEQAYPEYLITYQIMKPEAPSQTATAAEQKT
Experiment: Potency index, ratio of XAV-939 IC50 to test compound IC50 for inhibition of TNKS1 (unknown origin)

Ratio IC50: 5.6
SMILES: CNC(=O)[C@H](CNC(=O)CCn1c(=O)[nH]c(=O)c2ccccc21)NC(=O)c1cnc2ccccc2c1
